This assay deals with NB1 cells. The assay can be described thus: Crizotinib titration and co-titration with ALK antibodies, killing of NB1 cells. The assay is classed as cell-based, human. The conditions noted are these: titration of crizotinib alone.

Here are results for one compound from patent publication US11091559B2, “Anti-ALK antibodies and methods for use thereof” (Celldex Therapeutics, Inc., priority 2015, dated 2021).

Take `C[C@@H](Oc1cc(-c2cnn(C3CCNCC3)c2)cnc1N)c1c(Cl)ccc(F)c1Cl` [crizotinib, reference compound]: the “killing of NB1 cells” value is “dose-dependent killing”.
